Biological target: T1, Collagenase ColG (Hathewaya histolytica, UniProt Q9X721)
T1 sequence (Q9X721 whole entry): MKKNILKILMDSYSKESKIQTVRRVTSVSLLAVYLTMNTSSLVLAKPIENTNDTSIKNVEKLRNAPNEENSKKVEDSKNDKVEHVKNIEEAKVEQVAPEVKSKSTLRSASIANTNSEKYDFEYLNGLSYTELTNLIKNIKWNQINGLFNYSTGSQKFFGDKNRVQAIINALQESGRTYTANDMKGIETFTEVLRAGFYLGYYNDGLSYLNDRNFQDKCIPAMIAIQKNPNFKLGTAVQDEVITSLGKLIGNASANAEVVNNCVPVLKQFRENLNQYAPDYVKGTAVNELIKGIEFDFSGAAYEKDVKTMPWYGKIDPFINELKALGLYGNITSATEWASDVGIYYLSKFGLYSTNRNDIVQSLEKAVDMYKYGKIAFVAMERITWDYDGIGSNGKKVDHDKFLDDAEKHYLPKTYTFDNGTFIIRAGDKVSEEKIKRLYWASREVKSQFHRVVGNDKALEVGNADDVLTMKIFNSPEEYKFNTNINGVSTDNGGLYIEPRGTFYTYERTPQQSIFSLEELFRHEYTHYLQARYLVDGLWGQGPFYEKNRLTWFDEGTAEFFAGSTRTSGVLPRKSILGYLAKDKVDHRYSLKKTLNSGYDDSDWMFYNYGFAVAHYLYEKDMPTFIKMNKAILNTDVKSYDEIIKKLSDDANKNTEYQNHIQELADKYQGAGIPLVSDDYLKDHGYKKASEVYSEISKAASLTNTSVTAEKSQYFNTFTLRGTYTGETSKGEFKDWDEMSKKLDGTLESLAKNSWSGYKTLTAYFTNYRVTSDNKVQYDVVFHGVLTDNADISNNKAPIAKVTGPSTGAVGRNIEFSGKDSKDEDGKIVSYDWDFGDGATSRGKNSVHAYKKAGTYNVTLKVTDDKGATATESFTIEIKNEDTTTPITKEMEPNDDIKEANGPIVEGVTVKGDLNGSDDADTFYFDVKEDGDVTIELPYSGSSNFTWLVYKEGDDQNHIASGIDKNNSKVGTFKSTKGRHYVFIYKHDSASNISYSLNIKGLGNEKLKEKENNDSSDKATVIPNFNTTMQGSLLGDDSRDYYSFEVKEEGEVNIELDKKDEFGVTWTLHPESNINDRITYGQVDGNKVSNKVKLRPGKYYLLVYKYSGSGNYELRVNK
Assay: ChC Enzyme Inhibition Assay
Procedure: The rate of hydrolysis was determined from the change in absorbance at 324 nm using an extinction coefficient, 24700 M-1 cm-1 for FALGPA. Initial velocities were thus estimated using the direct linear plot-based procedure. The inhibition constant Ki was then determined by using Easson-Stedman plots and a linear regression program.

Row | SMILES | Ki (pH 7.5, 25 °C) | Ki
1 | CC(C(=O)O)N(Cc1ccccc1Cl)S(=O)(=O)c1ccccc1 (stereo not given) [2-{benzene[(2-chlorophenyl)methyl]sulfonamido}propanoic acid] | 24000 nM | 
2 | CC(C(=O)O)N(Cc1ccccc1Cl)S(=O)(=O)c1cccc(C(=O)O)c1 (stereo not given) [3-[(1-carboxyethyl)[(2-chlorophenyl)methyl]sulfamoyl]benzoic acid] |  | 4100 nM
3 | CC(C(=O)O)N(Cc1ccccc1Cl)S(=O)(=O)c1ccc(C(=O)O)cc1 (stereo not given) [4-[(1-carboxyethyl)[(2-chlorophenyl)methyl]sulfamoyl]benzoic acid] |  | 3800 nM
4 | C[C@@H](C(=O)NO)N(Cc1ccccc1Cl)C(=O)Nc1ccc(F)cc1 [(2S)-2-{[(2-chlorophenyl)methyl][(4-fluorophenyl)carbamoyl]amino}-N-hydroxypropanamide] |  | 18 nM
5 | C[C@@H](C(=O)NO)N(Cc1ccccc1Cl)Sc1ccc([N+](=O)[O-])cc1 [N-4-Nitrophenylsulfenyl-N-2-chlorobenzyl-L-alanine hydroxamate] |  | 13 nM
6 | CC(C(=O)O)N(Cc1ccccc1Cl)Sc1ccc([N+](=O)[O-])cc1 [N-4-Nitrophenylsulfenyl-N-2-chlorobenzyl-L-alanine] |  | 6000 nM
7 | Cc1ccc(S(=O)(=O)NC(=O)N(Cc2ccccc2Cl)[C@@H](C)C(=O)NO)cc1 [N-4-Toluenesulfonylureido-N-2-chlorobenzyl-L-alanine hydroxamate] |  | 11 nM
8 | CC(C(=O)NO)N(Cc1ccccc1Cl)S(=O)(=O)c1cccc(NC(=O)OC(C)(C)C)c1 (stereo not given) [tert-butyl N-(3-{[(2-chlorophenyl)methyl][1-(hydroxycarbamoyl)ethyl]sulfamoyl}phenyl)carbamate] |  | 8 nM
9 | CC(C(=O)NO)N(Cc1ccccc1Cl)S(=O)(=O)c1ccc(NC(=O)OC(C)(C)C)cc1 (stereo not given) [tert-butyl N-(4-{[(2-chlorophenyl)methyl][1-(hydroxycarbamoyl)ethyl]sulfamoyl}phenyl)carbamate] |  | 9 nM
10 | COc1ccc(S(=O)(=O)N(Cc2ccccc2Cl)C(C)C(=O)NO)cc1NC(=O)OC(C)(C)C (stereo not given) [tert-butyl N-(5-{[(2-chlorophenyl)methyl][1-(hydroxycarbamoyl)ethyl]sulfamoyl}-2-methoxyphenyl)carbamate] |  | 8 nM
